The results in this text go back to ChEMBL document CHEMBL1125669, “Synthesis of potential dual-acting radiation sensitizer antineoplastic agents: 2,2-dimethylphosphoraziridines containing 2-nitroimidazoles or other electron-affinic moieties” (1991).

Test [1] deals with Mus musculus. The test is described as follows: In vivo antitumor activity against P-388 leukemia in CDF1 mice at 64 mg or 166 umol by ip administration expressed as median survival time of drug treated mice/median survival time of control mice x100.
In test [2] the test system is Mus musculus. The test is described as follows: In vivo antitumor activity against P-388 leukemia in CDF1 mice at 128 mg or 332 umol by ip administration expressed as average wt. change determined between day 0 and day 6 of experiment.
The test system of test [3] is Mus musculus. Description: In vivo antitumor activity against P-388 leukemia in CDF1 mice at 256 mg or 664 umol by ip administration expressed as median survival time of drug treated mice/median survival time of control mice x100.
Test [4] deals with Mus musculus. The test is described as follows: In vivo antitumor activity against P-388 leukemia in CDF1 mice at 32 mg or 83 umol by ip administration expressed as average wt. change determined between day 0 and day 6 of experiment.
In test [5] the test system is Mus musculus. Description: In vivo antitumor activity against P-388 leukemia in CDF1 mice at 16 mg or 42 umol by ip administration expressed as average wt. change determined between day 0 and day 6 of experiment.
The test system of test [6] is Mus musculus. The test is described as follows: In vivo antitumor activity against P-388 leukemia in CDF1 mice at 8 mg or 21 umol by ip administration expressed as average wt. change determined between day 0 and day 6 of experiment.
The test system of test [7] is Mus musculus. Description: In vivo antitumor activity against P-388 leukemia in CDF1 mice at 32 mg or 83 umol by ip administration expressed as median survival time of drug treated mice/median survival time of control mice x100.
For test [8], the system named is Mus musculus. The test is described as follows: In vivo antitumor activity against P-388 leukemia in CDF1 mice at 16 mg or 42 umol by ip administration expressed as median survival time of drug treated mice/median survival time of control mice x100.
Test [9] deals with Mus musculus. Description: In vivo antitumor activity against P-388 leukemia in CDF1 mice at 8 mg or 21 umol by ip administration expressed as median survival time of drug treated mice/median survival time of control mice x100.
In test [10] the test system is Mus musculus. Description: In vivo antitumor activity against P-388 leukemia in CDF1 mice at 256 mg or 664 umol by ip administration expressed as average wt. change determined between day 0 and day 6 of experiment.
Test [11] has as its system Mus musculus. Description: In vivo antitumor activity against P-388 leukemia in CDF1 mice at 64 mg or 166 umol by ip administration expressed as average wt. change determined between day 0 and day 6 of experiment.
In test [12] the test system is Mus musculus. Description: In vivo antitumor activity against P-388 leukemia in CDF1 mice at 128 mg or 332 umol by ip administration expressed as median survival time of drug treated mice/median survival time of control mice x100.

As to `CC1(C)CN1P(=O)(NC(=O)NCCn1ccnc1[N+](=O)[O-])N1CC1(C)C` (configuration not stated), the T/C in test [1] was 111%; in test [3], 122%; in test [7] it was 100%; in [8], 111%; in test [9], 111%; in test [12], 122%. Further, the Average weight change in test [2] is -0.3 g; in [4], 1.3 g; in test [5] it was -0.2 g; in [6], 0.2 g; in test [10], -0.4 g; in [11], 0.3 g.

One may read the T/C as the result in the treated group divided by that in the control group, in per cent.
